Reference: ChEMBL document CHEMBL3763148, “Synthesis, structure elucidation, DNA-PK and PI3K and anti-cancer activity of 8- and 6-aryl-substituted-1-3-benzoxazines” (Eur J Med Chem, 2016)

Sequences of proteins named here, by UniProt entry; tags and fusion partners are left off. A change or cut given only in a name is not applied to a line headed by its entry.
UniProt P48736: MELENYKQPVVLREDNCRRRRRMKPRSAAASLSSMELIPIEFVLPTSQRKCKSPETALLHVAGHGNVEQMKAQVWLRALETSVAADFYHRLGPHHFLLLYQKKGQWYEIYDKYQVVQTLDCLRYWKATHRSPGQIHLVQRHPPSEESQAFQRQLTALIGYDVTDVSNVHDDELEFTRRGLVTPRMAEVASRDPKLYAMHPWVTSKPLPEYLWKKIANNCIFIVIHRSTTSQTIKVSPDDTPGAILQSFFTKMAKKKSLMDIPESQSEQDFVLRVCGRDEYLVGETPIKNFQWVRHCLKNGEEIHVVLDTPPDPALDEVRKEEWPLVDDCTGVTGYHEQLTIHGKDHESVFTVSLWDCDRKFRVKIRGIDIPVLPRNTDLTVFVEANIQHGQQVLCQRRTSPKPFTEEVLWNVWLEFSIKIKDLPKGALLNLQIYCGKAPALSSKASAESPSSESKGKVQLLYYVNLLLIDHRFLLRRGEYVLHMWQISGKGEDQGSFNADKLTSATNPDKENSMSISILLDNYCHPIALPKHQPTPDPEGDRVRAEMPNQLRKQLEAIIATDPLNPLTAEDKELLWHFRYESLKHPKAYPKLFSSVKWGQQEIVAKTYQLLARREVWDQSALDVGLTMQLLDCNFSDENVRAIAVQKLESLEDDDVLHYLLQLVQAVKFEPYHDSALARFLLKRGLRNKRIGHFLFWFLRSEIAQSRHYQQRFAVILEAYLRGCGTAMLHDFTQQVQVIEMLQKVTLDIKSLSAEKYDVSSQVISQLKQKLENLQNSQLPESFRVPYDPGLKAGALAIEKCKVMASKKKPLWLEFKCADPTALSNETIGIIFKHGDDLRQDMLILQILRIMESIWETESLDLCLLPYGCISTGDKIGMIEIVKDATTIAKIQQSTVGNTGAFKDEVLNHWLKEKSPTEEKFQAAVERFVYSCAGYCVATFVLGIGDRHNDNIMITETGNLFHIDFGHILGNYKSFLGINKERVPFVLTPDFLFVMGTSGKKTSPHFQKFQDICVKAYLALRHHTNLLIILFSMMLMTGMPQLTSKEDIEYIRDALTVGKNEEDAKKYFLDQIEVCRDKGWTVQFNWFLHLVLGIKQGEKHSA
UniProt P42338: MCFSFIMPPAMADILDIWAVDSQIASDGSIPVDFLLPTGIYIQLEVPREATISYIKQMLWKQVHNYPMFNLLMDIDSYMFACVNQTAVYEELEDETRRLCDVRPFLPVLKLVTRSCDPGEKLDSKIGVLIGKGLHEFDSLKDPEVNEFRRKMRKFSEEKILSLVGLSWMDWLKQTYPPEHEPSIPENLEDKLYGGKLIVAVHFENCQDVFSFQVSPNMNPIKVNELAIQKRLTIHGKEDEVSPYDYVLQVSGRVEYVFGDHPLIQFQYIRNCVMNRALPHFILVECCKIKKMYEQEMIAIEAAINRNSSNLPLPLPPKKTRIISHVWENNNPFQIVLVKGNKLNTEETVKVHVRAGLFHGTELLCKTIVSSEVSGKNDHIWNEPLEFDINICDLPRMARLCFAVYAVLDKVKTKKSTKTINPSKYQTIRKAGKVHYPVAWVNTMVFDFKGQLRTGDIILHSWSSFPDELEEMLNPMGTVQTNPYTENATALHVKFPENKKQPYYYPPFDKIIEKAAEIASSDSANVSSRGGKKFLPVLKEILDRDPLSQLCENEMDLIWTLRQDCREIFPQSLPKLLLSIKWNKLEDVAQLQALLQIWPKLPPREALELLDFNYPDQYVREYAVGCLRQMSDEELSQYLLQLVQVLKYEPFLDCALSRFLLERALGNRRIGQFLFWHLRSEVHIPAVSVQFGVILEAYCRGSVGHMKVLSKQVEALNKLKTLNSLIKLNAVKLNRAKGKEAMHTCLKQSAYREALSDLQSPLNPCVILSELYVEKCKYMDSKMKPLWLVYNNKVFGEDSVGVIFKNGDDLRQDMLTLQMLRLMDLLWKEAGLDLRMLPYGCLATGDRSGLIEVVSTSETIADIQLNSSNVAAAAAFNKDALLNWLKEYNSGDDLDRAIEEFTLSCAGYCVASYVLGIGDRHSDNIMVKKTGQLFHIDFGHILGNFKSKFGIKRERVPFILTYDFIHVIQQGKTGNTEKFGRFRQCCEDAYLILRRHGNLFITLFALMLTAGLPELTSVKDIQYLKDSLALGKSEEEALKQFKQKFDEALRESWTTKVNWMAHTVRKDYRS

Key:
[1] = target: Phosphatidylinositol 4,5-bisphosphate 3-kinase catalytic subunit gamma isoform (Homo sapiens, UniProt P48736); assay: Inhibition of PI3Kgamma (unknown origin) incubated for 60 mins by kinase-glo luminescence assay
[2] = target: Phosphatidylinositol 4,5-bisphosphate 3-kinase catalytic subunit beta isoform (Homo sapiens, UniProt P42338); assay: Inhibition of PI3Kbeta (unknown origin) incubated for 60 mins by kinase-glo luminescence assay

## O=c1cc(N2CCOCC2)oc2c(-c3ccccc3)cccc12 [LY-294002]
[1]
  pIC50: 5.82
[2]
  pIC50: 5.52

pIC50: −log10 of the molar value.
